Source: ChEMBL document CHEMBL1155874, “Carbonic anhydrase activators: Activation of the human cytosolic isozyme III and membrane-associated isoform IV with amino acids and amines” (Bioorg Med Chem Lett, 2008)

The chains behind the UniProt entries cited, without tags or fusion partners. Where a name states a change or a piece, a line headed by the entry shows the natural chain unless it says otherwise.
UniProt P07451: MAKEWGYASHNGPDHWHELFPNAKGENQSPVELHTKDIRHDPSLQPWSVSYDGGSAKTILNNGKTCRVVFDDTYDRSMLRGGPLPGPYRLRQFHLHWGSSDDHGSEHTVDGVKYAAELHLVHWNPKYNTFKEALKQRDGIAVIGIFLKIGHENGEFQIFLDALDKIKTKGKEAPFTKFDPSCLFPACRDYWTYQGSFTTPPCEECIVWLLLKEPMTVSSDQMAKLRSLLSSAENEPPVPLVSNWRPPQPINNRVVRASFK
UniProt P22748: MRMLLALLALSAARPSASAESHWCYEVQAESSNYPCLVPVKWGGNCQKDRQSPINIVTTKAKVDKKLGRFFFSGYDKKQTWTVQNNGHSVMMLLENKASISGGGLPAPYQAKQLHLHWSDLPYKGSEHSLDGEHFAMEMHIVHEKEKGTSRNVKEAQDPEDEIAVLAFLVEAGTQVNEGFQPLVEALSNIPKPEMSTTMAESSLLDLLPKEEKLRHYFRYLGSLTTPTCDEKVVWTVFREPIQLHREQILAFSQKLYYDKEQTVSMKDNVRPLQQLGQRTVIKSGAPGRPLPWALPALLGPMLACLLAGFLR

Columns and labels:
[1] = molecular target: Carbonic anhydrase 3 (Homo sapiens) (UniProt P07451); experiment: Activation of human recombinant CA3 at 10 uM by stopped-flow CO2 hydration method
[2] = molecular target: Carbonic anhydrase 4 (Homo sapiens) (UniProt P22748); experiment: Activation of human recombinant truncated CA4 at 10 uM by stopped-flow CO2 hydration method

SMILES | Ka [1] [µM] | Ka [2] [µM]
N[C@H](Cc1ccccc1)C(=O)O | 15.4 | 49.3
N[C@@H](Cc1ccccc1)C(=O)O | 34.7 | 36.3
